Ab-14 heavy chain CDR variants: yeast mating affinities

Source: Li et al. 2023 (doi:10.1038/s41467-023-39022-2), MIT Lincoln Laboratory and A-Alpha Bio; data file from the FLAb repository.

Antigen: PDVDLGDISGINAS, a 14-residue peptide of the SARS-CoV-2 spike HR2 region.

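Phage display of a naive human antibody library on the peptide gave the parent. These sequences belong to a second round, designed from the earlier measurements on random variants of the parent. Their group label is 14H_En_Gen (En: ensemble of fine-tuned language models; Gen: genetic algorithm). The scFvs were displayed on barcoded MATa yeast, the peptide on MATalpha yeast. Mating (16 h, 30 °C) was followed by selection of diploids and sequencing of their barcodes. Each replicate has its own calibration line, from reference interactions of the BCL2 family. Each pool was mated in six replicate cultures.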

Parent: Ab-14, a human scFv built as VH, a 15-residue (Gly4Ser)3 linker, VL. Only the CDRs of the heavy chain vary.
VH: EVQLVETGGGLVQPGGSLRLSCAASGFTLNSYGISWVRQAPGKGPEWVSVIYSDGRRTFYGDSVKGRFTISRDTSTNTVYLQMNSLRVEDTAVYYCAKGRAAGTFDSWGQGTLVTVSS
VL: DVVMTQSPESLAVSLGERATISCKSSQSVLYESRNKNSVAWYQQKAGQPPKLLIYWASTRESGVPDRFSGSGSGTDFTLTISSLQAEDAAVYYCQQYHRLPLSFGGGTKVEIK

The parent's heavy chain CDRs are GFTLNSYGIS, VIYSDGRRTFYGDSVK, GRAAGTFDS; each variant's own CDRs replace them letter for letter. Affinities are written as log10 Kd with Kd in nM; a lower number is a better binder. Replicates are averaged; those with no signal do not enter the mean. A pair that was not seen in that replicate is written "nd"; this usually means weak binding, but a binder can also be missed. The range of this assay differs from that of the first round, and the authors advise against merging the two. The parent sequence was in this pool as ten entries: three were never detected, three once, and four in most replicates, with averages from 0.34 to 2.37. Empty control strains, which show no peptide, gave a signal in 1% of pairings with all heavy chain designs; the median was 2.08 and 95% of these signals were weaker than 0.84. No background was subtracted. The control count says in how many pairings with the empty strains this scFv gave a signal. The authors' rule: three or more of the six replicates give a measured affinity, fewer mean a poor binder.

For GFDLDEYGIS, VIYADGMRTAYANDVK, GEVAGTFDV, the assay gave -0.60, -0.38, -0.52, -0.45, -0.46, -0.44 (mean -0.48; controls 0 of 18).
For GFDLDEYGIS, VIYADGMRTAYADNVK, GNEAGTFDV, the assay gave 0.14, 0.22, 0.09, 0.02, -0.14, 0.53 (mean 0.14; controls 0 of 18).
For GFDLNEYGIS, VIYADGMRTAYSDKVK, GEVAGTFDL, the assay gave -0.09, -0.25, -0.30, -0.12, -0.20, -0.10 (mean -0.17; controls 0 of 18).
For GFDLNEYGIS, VIYADGSRKAYADSVK, GNQAGTFDV, the assay gave -0.57, -0.90, -0.38, -1.18, -0.74, -0.72 (mean -0.75; controls 0 of 18).
For GFDLDEYGIS, VIYADGMRKAYADSVK, GNVAGTFDL, the assay gave -0.32, -0.10, -0.50, -0.78, -0.20, -0.35 (mean -0.37; controls 0 of 18).
For GFDLDEYGIS, VIYADGMRTAYADDVK, GNNAGTFDT, the assay gave -0.53, -0.97, 0.09, -1.00, -0.53, -0.60 (mean -0.59; controls 0 of 18).
For GFDLNEYGIS, VIYADGMRSYYADSVK, GNVAGTFDT, the assay gave -0.23, -0.22, -0.45, -0.78, -0.55, 0.11 (mean -0.35; controls 0 of 18).
For GFDLDEYGIS, VIYADGKRTAYADSVK, GQNAGTFDT, the assay gave 0.01, -0.10, -0.07, -0.28, -0.16, -0.25 (mean -0.14; controls 0 of 18).
For GFDLNEYGIS, VIYADGMRKAYADSVK, GNQAGTFDV, the assay gave -0.57, -0.91, -0.96, -0.93, -0.97, -0.86 (mean -0.87; controls 0 of 18).
For GFDLDEYGIS, VIYADGKRTAYSDSVK, GNQAGTFDM, the assay gave -0.10, -0.57, -0.67, -0.40, -0.51, -0.01 (mean -0.38; controls 0 of 18).
For GFDLNEYGIS, VIYADGKRTAYTDSVK, GQNAGTFDV, the assay gave 0.21, -0.12, -0.42, -0.65, -0.64, -0.28 (mean -0.31; controls 2 of 18).
For GFDLNEYGIS, VIYADGSRTAYADKVK, GNVAGTFDI, the assay gave -0.65, -0.25, -0.33, -0.79, -0.10, -0.59 (mean -0.45; controls 0 of 18).
For GFDLNEYGIS, VIYADGRRTAYVDSVK, GEVAGTFDL, the assay gave -0.09, -0.44, -0.47, -0.41, -0.34, -0.23 (mean -0.33; controls 0 of 18).
For GFDLNEYGIS, VIYADGSRTFYADSVK, GNVAGTFDQ, the assay gave -0.37, -0.64, -0.88, -0.78, -0.83, -0.49 (mean -0.66; controls 0 of 18).
For GFDLDEYGIS, VIYADGKRTAYIDSVK, GNVAGTFDT, the assay gave nd, nd, nd, nd, nd, nd (controls 0 of 18).
For GFDLNEYGIS, VIYADGMRTAYADSVK, GENAGTFVM, the assay gave nd, 1.54, nd, 2.18, nd, 1.99 (mean 1.90; controls 0 of 18).
For GFDLNEYGIS, VIYADGMRTAYSDDVK, GNQAGTFDM, the assay gave -0.77, -0.72, -0.90, -1.03, -0.94, -0.07 (mean -0.74; controls 0 of 18).
For GFDLDEYGIS, VIYADGRRTAYVDSVK, GNVAGTFDL, the assay gave -0.29, -0.30, -0.81, -0.82, 0.65, -0.09 (mean -0.28; controls 0 of 18).
For GFDLNEYGIS, VIYADGMRTVYADSVK, GQNAGTFDT, the assay gave -0.51, -0.57, -0.42, -0.53, -0.59, -0.41 (mean -0.50; controls 0 of 18).
For GFDLNEYGIS, VIYADGMRTAYSDSVK, GNVAGTFDS, the assay gave -0.05, -0.46, -0.32, -0.58, -0.54, -0.33 (mean -0.38; controls 1 of 18).
For GFDLNEYGIS, VIYADGMRTAYANDVK, GQNAGTFDV, the assay gave -0.53, -0.52, -0.67, -0.20, -0.42, -0.46 (mean -0.47; controls 0 of 18).
For GFDLNEYGIS, VIYADGVRTAYADNVK, GNTAGTFDV, the assay gave -0.79, 0.30, 1.10, 0.34, -0.17, -0.67 (mean 0.02; controls 0 of 18).
For GFDLDEYGIS, VIYADGVRTAYADSVK, GNQAGTFDL, the assay gave 1.19, 0.88, 0.27, 0.60, 0.22, 0.43 (mean 0.60; controls 1 of 18).
For GFDLNEYGIS, VIYADGERTAYADSVK, GENAGTFDV, the assay gave 0.54, 0.64, 0.43, 0.05, 0.70, 1.07 (mean 0.57; controls 0 of 18).
For GFDLNEYGIS, VIYADGVRTAYADNVK, GNVAGTFDL, the assay gave -0.64, -0.51, -0.50, -0.74, -0.57, -0.52 (mean -0.58; controls 1 of 18).
For GFDLDEYGIS, VIYADGRRTAYSDSVK, GENAGTFDL, the assay gave -0.06, 0.51, 0.33, -0.37, 0.52, 0.58 (mean 0.25; controls 0 of 18).
For GFDLNEYGIS, VIYADGKRTAYSDDVK, GNVAGTFDQ, the assay gave 0.04, -0.50, 0.00, -0.64, -0.99, -0.72 (mean -0.47; controls 0 of 18).
For GFDLNEYGIS, VIYADGMRTAYSDNVK, GQVAGTFDL, the assay gave 0.13, -0.59, -0.55, -0.93, -0.59, 0.11 (mean -0.40; controls 0 of 18).
For GFDLNEYGIS, VIYADGKRTAYIDSVK, GETAGTFDV, the assay gave 0.48, -0.29, -0.25, 0.97, 0.42, 0.02 (mean 0.23; controls 0 of 18).
For GFDLNEYGIS, VIYADGRRTAYSDKVK, GNVAGTFDV, the assay gave 0.22, 1.55, 0.68, 0.60, 0.99, 1.73 (mean 0.96; controls 0 of 18).
For GFDLDEYGIS, VIYADGMRTAYSDNVK, GEVAGTFDQ, the assay gave -0.61, -0.45, -0.59, -0.32, -0.35, -0.37 (mean -0.45; controls 1 of 18).
For GFDLNEYGIS, VIYADGVRTAYADNVK, GEVAGTFDM, the assay gave -0.38, -0.61, -0.66, -1.02, -0.42, -0.55 (mean -0.61; controls 0 of 18).
For GFDLDEYGIS, VIYADGQRTFYADSVK, GEVAGTFDV, the assay gave -0.77, -0.77, -0.83, -1.14, -0.92, -0.59 (mean -0.84; controls 1 of 18).
For GFDLNEYGIS, VIYADGMRTAYTDSVK, GEQAGTFDV, the assay gave -0.62, -0.64, -0.93, -0.80, -0.63, -0.60 (mean -0.70; controls 0 of 18).
For GFDLNEYGIS, VIYADGMRTAYADNVK, GTVAGTFDL, the assay gave -0.77, -0.67, -0.90, -0.98, -0.97, -0.65 (mean -0.82; controls 1 of 18).
For GFDLDEYGIS, VIYADGMRTYYADDVK, GNVAGTFDV, the assay gave -0.66, -0.34, -0.69, -0.79, -0.93, -0.50 (mean -0.65; controls 0 of 18).
For GFDLNEYGIS, VIYADGQRTAYADSVK, GNTAGTFDQ, the assay gave 1.85, 1.39, 1.55, 0.62, 1.47, 1.41 (mean 1.38; controls 0 of 18).
For GFDLDEYGIS, VIYADGSRTAYSDSVK, GNVAGTFDT, the assay gave -0.03, 0.49, 0.90, -0.61, -0.25, 0.17 (mean 0.11; controls 0 of 18).
For GFDLNEYGIS, VIYADGRRTAYADSVK, GNIAGTFDV, the assay gave -0.29, -0.06, -0.69, -0.77, -0.36, -0.43 (mean -0.44; controls 1 of 18).
For GFDLDEYGIS, VIYADGQRTAYADSVK, GNVAGTFDI, the assay gave -0.22, -0.68, -0.41, -0.57, -0.44, 0.20 (mean -0.35; controls 0 of 18).
For GFDLNEYGIS, VIYADGMRTAYIDSVK, GENAGTFDV, the assay gave 0.06, -0.36, -0.52, -0.07, -0.24, -0.01 (mean -0.19; controls 1 of 18).

A selection of 7 entries from above:

GFDLDEYGIS, VIYADGMRKAYADSVK, GNVAGTFDL: -0.32, -0.10, -0.50, -0.78, -0.20, -0.35 (mean -0.37; controls 0 of 18).
GFDLNEYGIS, VIYADGMRTAYANDVK, GQNAGTFDV: -0.53, -0.52, -0.67, -0.20, -0.42, -0.46 (mean -0.47; controls 0 of 18).
GFDLDEYGIS, VIYADGMRTAYADDVK, GNNAGTFDT: -0.53, -0.97, 0.09, -1.00, -0.53, -0.60 (mean -0.59; controls 0 of 18).
GFDLNEYGIS, VIYADGMRSYYADSVK, GNVAGTFDT: -0.23, -0.22, -0.45, -0.78, -0.55, 0.11 (mean -0.35; controls 0 of 18).
GFDLNEYGIS, VIYADGMRTAYTDSVK, GEQAGTFDV: -0.62, -0.64, -0.93, -0.80, -0.63, -0.60 (mean -0.70; controls 0 of 18).
GFDLNEYGIS, VIYADGRRTAYSDKVK, GNVAGTFDV: 0.22, 1.55, 0.68, 0.60, 0.99, 1.73 (mean 0.96; controls 0 of 18).
GFDLNEYGIS, VIYADGSRTFYADSVK, GNVAGTFDQ: -0.37, -0.64, -0.88, -0.78, -0.83, -0.49 (mean -0.66; controls 0 of 18).